Test results reported in article PMC6278801.

Key:
[1] = molecular target: ANF-RGC ΔSHD mutant (rat) (UniProt P18910)
[2] = molecular target: ANF-RGC ΔSHD mutant (rat) (UniProt P18910); remark: listed apart in the source

myristoylated neurocalcin δ (from UniProt P61602 1-193) (natural protein)
EC50 of myr-NCδ in modulating guanylate cyclase activity of COS cell membranes, 1 μM Ca^2+ [1]: 0.4 µM | guanylate cyclase activity of COS cell membranes at increasing concentrations of myr-NCδ, 1 μM Ca^2+; highest value (5.7-fold) (pmol cGMP min^-1 (mg prot)^-1) [2]: 348
